{"sequences": {"note": "Sequences of proteins named here, by UniProt entry; tags and fusion partners are left off. A change or cut given only in a name is not applied to a line headed by its entry.", "UniProt P11511": "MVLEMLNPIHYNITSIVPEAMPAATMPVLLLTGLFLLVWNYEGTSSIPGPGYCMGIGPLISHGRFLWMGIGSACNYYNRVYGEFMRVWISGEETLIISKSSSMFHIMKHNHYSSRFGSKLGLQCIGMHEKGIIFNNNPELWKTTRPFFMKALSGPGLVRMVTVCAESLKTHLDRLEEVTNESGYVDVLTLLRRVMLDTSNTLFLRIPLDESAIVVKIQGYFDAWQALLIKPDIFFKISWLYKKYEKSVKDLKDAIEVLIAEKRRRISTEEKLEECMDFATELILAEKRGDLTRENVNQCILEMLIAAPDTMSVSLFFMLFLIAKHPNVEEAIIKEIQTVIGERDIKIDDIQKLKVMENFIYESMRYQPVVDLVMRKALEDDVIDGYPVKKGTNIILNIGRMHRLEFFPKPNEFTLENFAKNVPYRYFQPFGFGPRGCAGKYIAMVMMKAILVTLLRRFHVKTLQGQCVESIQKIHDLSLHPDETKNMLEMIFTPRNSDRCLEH"}, "source": "paper PMC5126733", "about": "(Journal of medicinal chemistry, 2015)", "origin": "cited, not measured here", "target": "recombinant human aromatase (CYP19) (Homo sapiens, UniProt P11511)", "conditions": "previous testing results; cited from earlier work", "data": [{"smiles": "CCC(=C(c1ccc(O)cc1)c1ccc(OCCN)cc1)c1ccccc1", "note": "[(E,Z)-norendoxifen]", "values": [{"measurement": "fold increase in aromatase inhibitory activity compared with 7", "result": "> 240", "unit": "fold"}]}]}
